# Reference: PubChem BioAssay AID1645882 (National Center for Advancing Translational Sciences (NCATS), 2021)
# Protein sequences, listed by entry. Tags and fused reporters are not part of them. Lines headed by an entry give the natural chain unless they say otherwise; changes in a name come on top.
# UniProt O95398: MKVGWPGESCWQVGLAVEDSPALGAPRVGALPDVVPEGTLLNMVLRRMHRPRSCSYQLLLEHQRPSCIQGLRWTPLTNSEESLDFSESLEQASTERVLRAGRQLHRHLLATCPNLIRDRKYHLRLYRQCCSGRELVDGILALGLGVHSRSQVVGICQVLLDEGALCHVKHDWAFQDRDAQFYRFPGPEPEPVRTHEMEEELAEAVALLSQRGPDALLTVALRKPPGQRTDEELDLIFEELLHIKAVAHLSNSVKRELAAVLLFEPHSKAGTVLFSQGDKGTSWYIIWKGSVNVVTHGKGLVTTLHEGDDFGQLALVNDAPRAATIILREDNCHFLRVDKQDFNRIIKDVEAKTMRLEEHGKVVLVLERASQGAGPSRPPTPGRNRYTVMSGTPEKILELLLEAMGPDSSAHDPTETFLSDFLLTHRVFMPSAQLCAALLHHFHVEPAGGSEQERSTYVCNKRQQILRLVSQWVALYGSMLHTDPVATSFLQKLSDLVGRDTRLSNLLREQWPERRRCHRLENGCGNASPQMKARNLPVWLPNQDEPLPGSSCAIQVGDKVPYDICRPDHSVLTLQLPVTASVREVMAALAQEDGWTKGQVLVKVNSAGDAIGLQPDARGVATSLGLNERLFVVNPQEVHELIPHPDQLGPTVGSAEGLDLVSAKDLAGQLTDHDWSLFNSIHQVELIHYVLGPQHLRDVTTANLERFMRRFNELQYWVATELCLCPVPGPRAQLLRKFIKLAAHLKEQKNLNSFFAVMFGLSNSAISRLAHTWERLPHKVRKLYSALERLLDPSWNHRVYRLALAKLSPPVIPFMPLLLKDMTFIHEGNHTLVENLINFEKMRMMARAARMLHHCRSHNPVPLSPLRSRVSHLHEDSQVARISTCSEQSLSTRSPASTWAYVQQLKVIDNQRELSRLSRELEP
# Values joined by “and” are separate entries in the source; they are usually repeats but may differ in a detail not shown here. Equal entries are not always repeated. The list shows a part of the results, in another mix than the full data. Records with an inconclusive call do not appear. Active and inactive are the calls of the source. Calls follow the shape of the dose curve; as a rule, active = well fitted inhibition curve with a large enough effect; inconclusive = small, poorly fitted or top-dose-only effect; inactive = no such curve, though single readings can be large or run the other way.
# Target: Rap guanine nucleotide exchange factor 3 (Homo sapiens) (UniProt O95398)
# Experiment: Validation qHTS for antagonist of cAMP-regulated guanine nucleotide exchange factor 3 (EPAC1); also: nearly all actives have a fitted effect of over 75% in size
# Settings: EPAC1 Rap1B-BODIPY-GDP exchange, fluorescence
# Text: Assay Provider (PI): Xiaodong Cheng Ph.D.
# The University of Texas Medical Branch, […], TX
# In multi-cellular eukaryotic organisms, the effects of cAMP are transduced by two ubiquitously-expressed intracellular cAMP receptors, the classic protein kinase A/cAMP-dependent protein kinase (PKA/cAPK) and the more recently discovered exchange protein directly activated by cAMP/cAMP-regulated guanine nucleotide exchange factor (EPAC/cAMP-GEF). Both PKA and EPAC are ubiquitously expressed in all tissues, and an increase in intracellular cAMP levels will lead to the activation of both PKA and EPAC. Therefore, careful dissections of the individual role and relative contribution of EPAC and PKA within the overall cAMP signaling in various model systems are critical for further elucidating the mechanism of cAMP signaling. To date no EPAC-specific antagonists and agonist, as well as isoform-specific agonists have been reported, and developing EPAC-specific pharmacological probes to determine the physiological functions that EPAC play in the overall cAMP-mediated signaling remains a major challenge within the research field. Furthermore, identified regulators of EPAC may lead to new mechanism-based therapeutic strategies specifically targeting the EPAC / cAMP-signaling components as EPAC has been implicated to play important roles in major human pathological conditions such as diabetes, heart disease, and cancer.
# This qHTS will be used to screen the Molecular Libraries Small Molecule Repository (MLSMR) as a concentration-titration series using the NCGC unique quantitative screening (qHTS) platform to find activators for EPAC1. In addition, this assay will also be used as a counterscreen for the EPAC2 qHTS. This fluorescent based assay is developed and validated for EPAC1 that measures exchange using EPAC effector Rap1 complex with BODIPY-GDP, a GDP analog with a tethered fluorophores. Activators are identified by monitoring the change in fluorescence signal as the exchanged free BODIPY-GDP has a reduced fluorescence compared to Rap1-bound BODIPY-GDP. Increase in signal (activation) is the desired outcome for the EPAC1 agonist while no activity in this assay is desired for the EPAC2 agonist counterscreen.
# [1] de Rooij, J., Zwartkruis, F. J., Verheijen, M. H., Cool, R. H., Nijman, S. M., Wittinghofer, A., and Bos, J.L. (1998) Nature 396, 474-477.
# Briefly, three uL of reagents (100 nM EPAC1, 250 nM RAP1B-BODIPY-GDP, 50 uM GDP) were dispensed into a 1536-well Greiner black solid-bottom medium binding assay plate. Controls and test compounds (23 nL) were transferred to the plate via a Kalypsys pin tool equipped with a 1536-pin array. The plates were centrifuged at 1,000 rpm for 15 seconds followed by 5 minute incubation at room temperature. The assay plates were read at 5 minute intervals for 30 minutes in the ViewLux plate reader using 480nm excitation and 540nm emission filters. The results were normalized to the […] positive control ATA and DMSO.
smiles,measurement,setting,value
Nc1c(O)cc([N+](=O)[O-])cc1[N+](=O)[O-],"activity change, negative = inhibition",at 150 µM (top of the series),inactive: -3.82%
CN(C(=O)Cc1ccc(Cl)c(Cl)c1)[C@H]1CCCC[C@@H]1N1CCCC1,"activity change, negative = inhibition",at 75.8 µM (top of the series),inactive: -6.03% and inactive: -11.6%
CCNC(C)Cc1ccc2c(c1)OCO2 (centres undefined),"activity change, negative = inhibition",at 320 µM (top of the series),inactive: 14.1%
CC(=O)C1=CCCC2CCC1N2 (centres undefined),"activity change, negative = inhibition",at 150 µM (top of the series),inactive: 16.3%
COc1cc([N+](=O)[O-])c([N+](=O)[O-])cc1OC,"activity change, negative = inhibition",at 150 µM (top of the series),inactive: 16.1%
Cc1cc(C=O)ccc1N(CCCl)CCCl,"activity change, negative = inhibition",at 150 µM (top of the series),inactive: 14.4%
CN(C(=O)Cc1ccccc1)[C@H]1CC[C@@]2(CCCO2)C[C@@H]1N1CCCC1,"activity change, negative = inhibition",at 150 µM (top of the series),inactive: 7.81%
Cc1cc([N+](=O)[O-])cc([N+](=O)[O-])c1O,"activity change, negative = inhibition",at 320 µM (top of the series),inactive: 20.6%
COc1cccc([N+](=O)[O-])c1[N+](=O)[O-],"activity change, negative = inhibition",at 150 µM (top of the series),inactive: 15.1%
O=C(OC1CN2CCC1CC2)c1ccccc1 (centres undefined),"activity change, negative = inhibition",at 150 µM (top of the series),inactive: 19.8%
CN(C(=O)Cc1ccc(Cl)c(Cl)c1)[C@@H]1CCCC[C@@H]1N1CCCC1,"activity change, negative = inhibition",at 75.8 µM (top of the series),inactive: 24.4%
O=[N+]([O-])c1cc([N+](=O)[O-])c2nc[nH]c2c1,"activity change, negative = inhibition",at 150 µM (top of the series),inactive: 8.53%
CN(C(=O)Cc1ccccc1)[C@@H]1CC[C@]2(CCCO2)C[C@H]1N1CCCC1,"activity change, negative = inhibition",at 75.8 µM (top of the series),inactive: 16.7%
CN(C(=O)Cc1ccc(Cl)c(Cl)c1)[C@H]1CC[C@@]2(CCCO2)C[C@@H]1N1CCCC1,"activity change, negative = inhibition",at 150 µM (top of the series),inactive: 30.7%
NC(=O)Nc1ccc([As](=O)(O)O)cc1,"activity change, negative = inhibition",at 150 µM (top of the series),inactive: 25.1%
CN(C(=O)Cc1ccc(Cl)c(Cl)c1)[C@@H]1CC[C@]2(CCCO2)C[C@H]1N1CCCC1,"activity change, negative = inhibition",at 75.8 µM (top of the series),inactive: 5.54%
CN(C(=O)Cc1ccc(Cl)c(Cl)c1)[C@@H]1CCCC[C@H]1N1CCCC1,"activity change, negative = inhibition",at 150 µM (top of the series),inactive: 13.6%
CN(CCCl)Cc1cc(Cl)c(NC2=NCCN2)c(Cl)c1,"activity change, negative = inhibition",at 75.8 µM (top of the series),inactive: -1.68%
same,"activity change, negative = inhibition",at 150 µM (top of the series),inactive: -1.35%
